# Values of other authors, collected in patent US20070087364A1, “In vitro erythroid micronucleus assay for genotoxicity” (Massachusetts Institute of Technology, priority 2005, published 2007).
# Tested on: bone marrow PCEs (reticulocytes)
# Details: general statement on the model genotoxicants; cited from earlier work
substance,measurement,value
N-methyl-N-nitro-N-nitrosoguanidine,result in the in vivo MN assay,test positive
